# Results taken from PubChem BioAssay AID2517 (National Center for Advancing Translational Sciences (NCATS), 2010).
# By UniProt entry, the sequences of proteins in these tests, tags left out.
# UniProt P27695, whole entry: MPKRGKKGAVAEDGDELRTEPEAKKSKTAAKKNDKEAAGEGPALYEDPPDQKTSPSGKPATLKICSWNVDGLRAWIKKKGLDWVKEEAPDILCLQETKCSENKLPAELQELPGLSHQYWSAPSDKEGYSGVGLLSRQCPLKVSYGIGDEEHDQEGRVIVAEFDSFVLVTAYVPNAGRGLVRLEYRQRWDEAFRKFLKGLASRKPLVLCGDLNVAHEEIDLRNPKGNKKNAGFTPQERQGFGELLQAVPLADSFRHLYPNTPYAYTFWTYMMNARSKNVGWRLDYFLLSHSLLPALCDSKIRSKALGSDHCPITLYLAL
# Only a part is listed here, and it is no random draw. Records with an inconclusive call do not appear. Some salts or complexes appear as unconnected parts, following the source record. The source made the active and inactive calls. Calls follow the shape of the dose curve; as a rule, active = well fitted inhibition curve with a large enough effect; inconclusive = small, poorly fitted or top-dose-only effect; inactive = no such curve, though single readings can be large or run the other way.
# Molecular target: DNA repair nuclease/redox regulator APEX1 (Homo sapiens) (UniProt P27695)
# Test: qHTS Assay for Inhibitors of the Human Apurinic/apyrimidinic Endonuclease 1 (APE1);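 also: plate controls were vehicle for no effect and reference inhibitor for full effect; nearly all actives have a fitted effect of over 55% in size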
# Settings: recombinant APE1, TAMRA/BHQ-2 abasic DNA cleavage fluorescence; at 65.8 µM (top of the series) unless noted
row,SMILES,"activity change, negative = inhibition"
1,COc1cc(C(=O)NCC2(N(C)C)CCCCC2)ccc1OC(F)F,inactive: 27.9%
2,CCOC(=O)N1CCC(Nc2cccc(C)c2)CC1,inactive: 16.5%
3,Cc1ccc(OCC(C)C)c(CN(CCCl)CCCl)c1,inactive: 9.96%
4,CCOc1ccc(C)cc1CN(CCCl)CCCl,inactive: 21%
5,O=C(NCC1(N2CCCCC2)CCCCC1)c1ccc(F)cc1,inactive: 8.1% [at 12.4 µM]
6,CCCCOc1ccc(C(=O)NCC2(N3CCOCC3)CCCCC2)cc1,inactive: -2.52%
7,COc1ccc(NC2CCN(CCc3ccccc3)CC2)c(OC)c1,inactive: 8.59%
8,CCOC(=O)N1CCC(Nc2ccc(F)cc2)CC1,inactive: 7.12%
9,O=C(NCC1(N2CCOCC2)CCCCC1)c1cc2ccccc2o1,inactive: -2.14%
10,O=C(NCC1(N2CCCCC2)CCCCC1)c1ccc(Cl)nc1,inactive: 32.1%
11,Cc1cc(C)cc(N(C(=O)c2ccccc2)C2CCN(C(=O)OC(C)(C)C)CC2)c1,inactive: 11.8%
12,CCOC(=O)N1CCC(Nc2ccc(OC)cc2)CC1,inactive: 1.28%
13,O=C(OC1CN2CCC1CC2)C1c2ccccc2Oc2ccccc21 (stereo unspecified),inactive: -4.5%
14,N#CC1(Nc2ccccc2)CCN(Cc2ccccc2)CC1,inactive: -3.58%
15,O=C(NCC1(N2CCCCC2)CCCCC1)c1ccc(Cl)s1,inactive: 1.8%
16,COc1ccc(Cl)cc1C(=O)NCC1(N2CCOCC2)CCCCC1,inactive: -23.4%
17,O=C(NCC1(N2CCCCC2)CCCCC1)c1ccc(=O)[nH]c1,inactive: 28.4%
18,O=C(NCC1(N2CCCCC2)CCCCC1)c1cccs1,inactive: 16.6%
19,COc1ccc(C(=O)NCC2(N3CCCCC3)CCCCC2)cc1,inactive: 39.9%
20,COc1ccc(C(=O)NCC2(N3CCCCC3)CCCCC2)c(OC)c1OC,inactive: 8.59%
21,CC(C)(C)OC(=O)N1CCC(N(C(=O)c2ccccc2)c2ccc(F)cc2)CC1,inactive: -6.87%
22,CSc1ccccc1C(=O)NCC1(N2CCCCC2)CCCCC1,inactive: 28% [at 12.4 µM]
23,O=C(NCC1(N2CCCCC2)CCCCC1)c1cncc(Br)c1,inactive: 16.3%
24,COc1ccc2c(c1O)-c1c(O)c(OC)cc3c1[C@H](C2)[N+](C)(C)CC3.O=[N+]([O-])c1cc([N+](=O)[O-])c([O-])c([N+](=O)[O-])c1[O-],inactive: -4.24%
25,O=C(OC1CN2CCC1CC2)c1ccc([N+](=O)[O-])cc1 (stereo unspecified),inactive: 8.43%
26,CCCOc1ccc(C(=O)NCC2(N(C)C)CCCCC2)cc1OC,inactive: 32.2%

row,SMILES,"activity change, negative = inhibition"
1,COc1ccc(CN(CCCl)CCCl)cc1Cl,inactive: 6.78%
2,O=[N+]([O-])c1cc([N+](=O)[O-])c(OC2CCCCC2O)c([N+](=O)[O-])c1 (stereo unspecified),inactive: 15.3%
3,CN(C)c1cccc(C(=O)NCC2(N3CCCCC3)CCCCC2)c1,inactive: -5.54%
4,CC(C)c1ccc(NC2CCN(C(=O)OC(C)(C)C)CC2)cc1,inactive: -1.83%
5,COc1cc(OC)c(C(=O)NCC2(N(C)C)CCCCC2)cc1OC,inactive: 0.768%
6,O=C(NCC1(N2CCOCC2)CCCCC1)c1cc(F)c(F)cc1Cl,inactive: -9.22%
7,CCOP(=O)(Cl)Cl,inactive: -0.0404%
8,O=C(NCC1(N2CCCCC2)CCCCC1)c1cccc(C(F)(F)F)c1,inactive: 25%
9,O=[N+]([O-])c1cc([N+](=O)[O-])c(NCC2CCS(=O)(=O)C2)c([N+](=O)[O-])c1 (stereo unspecified),inactive: -3.75%
10,CN1CCN(CCOC(=O)C(O)(c2ccccc2)c2ccccc2)CC1,inactive: 4.05%
11,COc1ccc(NC2CCN(C(=O)OC(C)(C)C)CC2)cc1,inactive: -5.95%
12,CC(C)c1ccc(C(=O)NCC2(N3CCOCC3)CCCCC2)cc1,inactive: 1.13%
13,COc1cc(C(=O)NCC2(N3CCCCC3)CCCCC2)ccc1OC(F)F,inactive: 21.5%
14,O=C(NCC1(N2CCOCC2)CCCCC1)c1cc(=O)[nH]c2ccccc12,inactive: 10.7%
15,O=C(NCC1(N2CCCCC2)CCCCC1)c1ccc(OC(F)F)cc1,inactive: -10.4%
16,CSc1ccc(C(=O)NCC2(N3CCOCC3)CCCCC2)cc1,inactive: 3.96%
17,O=C(NCC1(N2CCCCC2)CCCCC1)c1cccc([N+](=O)[O-])c1,inactive: -0.287%
18,CCN1CCC(Nc2ccc(Cl)cc2)CC1,inactive: 12.7%
19,N#CC1(Nc2ccccc2)CCN(CCc2ccccc2)CC1,inactive: -2.05%
20,c1ccc(CN2CCC(Nc3ccccc3)CC2)cc1,inactive: 1.39%
21,CCCN1CCC(Nc2cc(OC)cc(OC)c2)CC1,inactive: 7.28%
22,ClCCOP(OCCCl)OCCCl,inactive: 3.66%
23,CN(C)C1(CNC(=O)c2cccc(C#N)c2)CCCCC1,inactive: 6.56%
24,CC(C)(C)OC(=O)N1CCC(N(C(=O)c2ccccc2)c2ccc(Cl)cc2)CC1,inactive: 8.09%
25,N#Cc1ccc(C(=O)NCC2(N3CCCCC3)CCCCC2)cc1,inactive: 16.4%
26,CCOC(=O)C(CC)C1=NC(C)(C)Cc2ccccc21.O=[N+]([O-])c1cc([N+](=O)[O-])c(O)c([N+](=O)[O-])c1 (stereo unspecified),inactive: 0.385%

row,SMILES,"activity change, negative = inhibition"
1,N/C(=N\O)c1c(N)no[n+]1[O-],inactive: -1.8%
2,CCOC(=O)N1CCC(Nc2ccc(C)cc2)CC1,inactive: -6.14%
3,O=C(OC1CN2CCC1CC2)C1c2ccccc2C=Cc2ccccc21 (stereo unspecified),inactive: 9.17%
4,CCc1cc(C(=O)NCC2(N3CCCCC3)CCCCC2)sc1C,inactive: 19.1%
5,O=C(O)c1cccc(Nc2c([N+](=O)[O-])cc([N+](=O)[O-])cc2[N+](=O)[O-])c1,inactive: 3.45%
6,O=C(NCC1(N2CCOCC2)CCCCC1)c1cc(Br)ccc1Cl,inactive: -9.25%
7,COc1cc(C(=O)NCC2(N3CCOCC3)CCCCC2)cc(OC)c1C,inactive: -0.248%
8,COc1ccc(C(=O)NCC2(N3CCOCC3)CCCCC2)cc1OC,inactive: -4.64%
9,CCC(CO)(C(=O)OC1CN2CCC1CC2)c1ccccc1 (stereo unspecified),inactive: 6.54%
10,COc1cc(OC)cc(C(=O)NCC2(N3CCOCC3)CCCCC2)c1,inactive: -1.18%
11,COc1cccc(C(=O)N(c2cc(C)cc(C)c2)C2CCN(C(=O)OC(C)(C)C)CC2)c1,inactive: -24.1%
12,CCCOc1ccc(C)cc1CN(CCCl)CCCl,inactive: 15.3%
13,CN1CCC(Nc2ccc(Cl)cc2)CC1,inactive: 14.2%
14,CCOc1ncccc1C(=O)NCC1(N2CCOCC2)CCCCC1,inactive: -2.63%
15,CN1CCC(Nc2ccc(F)c(Cl)c2)CC1,inactive: -11.7%
16,CCCOc1ccc(C(=O)NCC2(N(C)C)CCCCC2)cc1,inactive: 50.9%
17,CC(C)(C)OC(=O)N1CCC(Nc2ccccc2)CC1,inactive: -0.715%
18,O=C(O)C1(Nc2ccccc2)CCN(Cc2ccccc2)CC1,inactive: 1.67%
19,CCN1CCC(Nc2cccc(F)c2)CC1,inactive: 0.462%
20,O=C(NCC1(N2CCCCC2)CCCCC1)c1ccco1,inactive: -0.561%
21,CN(C)c1ccc(C(=O)NCC2(N3CCCCC3)CCCCC2)cc1,inactive: 3.08%
22,COc1cc(OC)cc(C(=O)NCC2(N3CCCCC3)CCCCC2)c1,inactive: 60.8%
23,Cc1ccc(C(=O)NCC2(N3CCCCC3)CCCCC2)o1,inactive: 18.1%
24,Fc1ccccc1NC1CCN(Cc2ccccc2)CC1,inactive: 0.587%
